{"source": "paper PMC5384962", "about": "“First-in-human studies of seletalisib, an orally bioavailable small-molecule PI3Kδ inhibitor for the treatment of immune and inflammatory diseases” (European Journal of Clinical Pharmacology, 2017)", "tested_on": "basophil degranulation", "assay": "Study-2 ex vivo basophil degranulation (anti-FcεR1-driven CD63 expression, whole blood)", "data": [{"molecule": "[O-][n+]1cccc(-c2nc3c(Cl)cccc3cc2[C@@H](Nc2ncnc3cccnc23)C(F)(F)F)c1", "note": "[Seletalisib, seletalisib]", "values": [{"measurement": "basophil degranulation inhibition, multiple-dose day 14 compared with day 1", "result": "lower levels of basophil degranulation inhibition"}]}]}
